In US20140287931A1, “METHODS AND COMPOSITIONS FOR PREDICTING RESISTANCE TO ANTICANCER TREATMENT” (Stichting het Nederlands Kanker Instituut - Antoni van …, priority 2011, published 2014):

Columns and labels:
[1] = system: BT474 breast cancer cells; test: Colony formation assay in BT474 cells with ARID1A knockdown; type: cell-based, human; conditions: 25 nM AZD8055 or 2 ug/ml trastuzumab, 4 weeks
Experimental: The functional phenotypes of non-overlapping shARID1A vectors are indicated by the colony formation assay in 25 nM small molecule mTOR inhibitor AZD8055 or 2 ug/ml of trastuzumab (Herceptin). The cells were fixed, stained and photographed after 2 weeks (untreated) or 4 weeks (inhibitor treatment).

[2] = system: BT474 breast cancer cells; conditions: parental, naturally HER2 amplified; previously shown by Applicants; cited from earlier work

In the case of Trastuzumab, the “resistance on knockdown of ARID1A, colony formation” value [1] is listed as “conferred resistance”, the “resistance on knockdown of ARID1A, colony formation” value ([1]; listed as trastuzumab) is listed as “confers resistance” and the “sensitivity of BT474 cells” value [2] is listed as “highly sensitive”.
